Earlier results, collected in US6320024A, “Method for design of substances that enhance memory and improve the quality of life” (priority 1999, dated 2001).

Test system: CD-1 male mice
Conditions: post-training ICV in mice; references 1 and 12; cited from earlier work

| Substance | amnestic effect on retention of FAAT (literature) |
| --- | --- |
| Val His His Gln Lys Leu Val Phe Phe (VHHQKLVFF) [β-(12-20)] | amnestic |
| Val His His Gln Lys Leu Val Phe Phe Ala Glu Asp Val Gly Ser Asn Lys (VHHQKLVFFAEDVGSNK) [β-(12-28)] | amnestic |
